Results: ChEMBL document CHEMBL1140164, “Isosorbide-2-carbamate esters: potent and selective butyrylcholinesterase inhibitors” (J Med Chem, 2008)

Sequences of proteins named here, by UniProt entry; tags and fusion partners are left off. A change or cut given only in a name is not applied to a line headed by its entry.
UniProt O42275: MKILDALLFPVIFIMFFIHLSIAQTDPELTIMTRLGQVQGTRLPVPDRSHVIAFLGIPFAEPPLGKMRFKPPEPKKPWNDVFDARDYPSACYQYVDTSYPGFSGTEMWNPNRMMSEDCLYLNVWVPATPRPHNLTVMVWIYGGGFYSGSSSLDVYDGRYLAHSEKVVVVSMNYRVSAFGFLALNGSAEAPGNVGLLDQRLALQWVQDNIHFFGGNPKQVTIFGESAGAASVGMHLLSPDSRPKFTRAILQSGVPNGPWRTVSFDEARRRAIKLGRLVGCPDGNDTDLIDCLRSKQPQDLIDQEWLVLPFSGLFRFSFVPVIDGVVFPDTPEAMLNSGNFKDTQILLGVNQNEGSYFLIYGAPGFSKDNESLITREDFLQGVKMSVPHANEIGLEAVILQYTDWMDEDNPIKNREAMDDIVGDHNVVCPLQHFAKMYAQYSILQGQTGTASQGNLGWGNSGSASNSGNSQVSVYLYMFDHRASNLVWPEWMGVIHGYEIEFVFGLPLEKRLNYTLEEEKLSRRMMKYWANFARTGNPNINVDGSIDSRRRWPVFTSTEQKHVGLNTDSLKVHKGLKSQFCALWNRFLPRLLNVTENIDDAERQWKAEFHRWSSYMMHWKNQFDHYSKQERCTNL

Target: Acetylcholinesterase (Electrophorus electricus, UniProt O42275)
Assay: Inhibition of electric eel AchE by Ellman's method
In short: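 Ellman assay with electric eel AChE and ATCI as substrate, phosphate buffer pH 8.0, DTNB (0.5 mM solution). Enzyme and inhibitor incubated 30 min before substrate addition; absorbance read at 405 nm over 5 min. Initial screen at 100 µM inhibitor; IC50 fitted only where inhibition was significant, reported with 95% confidence interval. Triplicate.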

`CNC(=O)Oc1ccc2c(c1)[C@]1(C)CCN(C)[C@@H]1N2C` [PHYSOSTIGMINE] was tested, and the IC50 was 103 nM.
